Assay results: patent publication US9907837B2, “Composition for preventing or treating cachexia” (GemVax & KAEL Co., Ltd., priority 2012, dated 2018)

Legend:
[1] = test system: CIA (collagen induced arthritis) mouse; assay: CIA (collagen induced arthritis) mouse model, first experiment; assay type: in vivo, DBA/1J mouse; settings: 1 nM or 10 nM, 100 μl intradermal
Method: In order to find effectiveness of the peptide according to the present invention to rheumatoid arthritis (RA), CIA (collagen induced arthritis) mouse were used to confirmation.
(§1) In the first and second experiment mentioned below, lyophilized and formed in powder PEP1 according to the Example 1 was dissolved in 0.9% saline solution and was used. After doing amendment of the purity (purity: 97.3%, content: 85.3%) of PEP1, the solution for injection was made in each concentration with 0.9% saline solution as an additive just before an administration. Every dose was administered by the solution in an amount of 100 μl.
The first induction was done to 38 mice at day 1 by using 5-weeks male DBA/1J mouse (Orient Bio Inc., Korea), and the mice were divided into the preventive group consisting of 16 mice administered by a peptide composition before CIA inducement (i.e. 8 mice of 1 nM, 100 μl (around 0.2 ng dose) and 8 mice of 10 nM, 100 μl (around 2 ng dose)), the therapeutic group consisting of 16 mice administered by a peptide composition after CIA inducement (i.e. 8 mice of 1 nM, 100 μl and 8 mice of 10 nM, 100 μl), and the PBS treatment group consisting of 6 mice.
To the preventive group, the treatment was done by intradermal injection in each suitable concentration at day 2, 4, 6, 21, 23, 25, 35, 37 and 39. […]

[2] = test system: CIA (collagen induced arthritis) mouse; assay: CIA (collagen induced arthritis) mouse model, second experiment; assay type: in vivo; settings: second experiment, 0.2, 1, 2, 5 nM, 100 μl intradermal
Method: as §1
Like the first experiment, the first inducement was done to 38 mice at day 1 by using 5-week mice, the mice were divided into the group consisting of 32 mice administered by a peptide composition before CIA inducement (8 mice of 0.2 nM, 100 μl (i.e. around 0.04 ng); 8 mice of 1 nM, 100 μl (around 0.2 ng dose); 8 mice of 2 nM, 100 μl (i.e. around 0.4 ng); 8 mice of 5 nM, 100 μl (i.e. around 1 ng)) and the PBS treatment group consisting of 6 mice.
The second inducement was done at day 21, and the treatment was done by intradermal injection in each suitable concentration to each group at day 23, 25 and 27 (see FIG. 2).
The assessment of rheumatoid arthritis index was done at from the day of second inducement to the day 42 per every two days and the joint and serum was collected after sacrificing all mice at day 42.

CC[C@H](C)[C@H](NC(=O)[C@H](Cc1ccccc1)NC(=O)[C@H](CCCNC(=N)N)NC(=O)[C@H](CC(C)C)NC(=O)[C@H](CCCNC(=N)N)NC(=O)[C@H](CO)NC(=O)[C@@H](NC(=O)[C@H](CC(C)C)NC(=O)[C@H](CC(C)C)NC(=O)[C@H](C)NC(=O)[C@@H]1CCCN1C(=O)[C@H](CCCNC(=N)N)NC(=O)[C@H](C)NC(=O)[C@@H](N)CCC(=O)O)[C@@H](C)O)C(=O)N1CCC[C@H]1C(=O)N[C@@H](CCCCN)C(=O)O [PEP 1]
survival during administration [1]: all mice were survived | survival during administration [2]: all mice were survived
